# Apparent affinities of Ab-95 variants for a coronavirus HR2 peptide

Data: MIT Lincoln Laboratory AlphaSeq set, Engelhart et al. 2022, doi:10.1038/s41597-022-01779-4, as distributed in FLAb.

The target is the same throughout: PDVDLGDISGINAS, from the HR2 region of SARS-CoV-2 spike.

The variants keep the heavy chain, the linker and the frameworks of Ab-95 (scFv order VH, the linker GGGGSGGGGSGGGGS, VL).
VH: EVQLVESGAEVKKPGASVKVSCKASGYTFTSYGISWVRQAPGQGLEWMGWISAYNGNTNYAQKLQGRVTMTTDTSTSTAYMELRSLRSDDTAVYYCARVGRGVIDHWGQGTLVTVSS
VL: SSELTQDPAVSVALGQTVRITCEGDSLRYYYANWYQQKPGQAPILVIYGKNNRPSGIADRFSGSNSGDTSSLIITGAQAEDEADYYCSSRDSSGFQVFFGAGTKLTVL

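Library AAYL52 holds single substitutions and randomly drawn double and triple substitutions in the CDRs. The assay is AlphaSeq: two haploid yeast populations carry antibody and antigen on their surface. Mating (16 h, 30 °C) was followed by selection of diploids and sequencing of their barcodes. Scores were corrected for input abundance and mapped to Kd with protein pairs of known affinity run in the same pool. Mating was done three times.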

Each variant is given by its three light chain CDRs, as the data file delimits them; those of the parent are EGDSLRYYYAN, GKNNRPS, SSRDSSGFQVF.
Each Kd is an estimate from the mating assay, the geometric mean of the replicates in which the pair was seen; lower is stronger.
"no signal" marks a missing value. The strain was present, yet no cells mated with the target were sequenced in any replicate, which points to weak or no binding.
Order: sorted from the lowest average up, undetected variants last.

Kd	detected	CDR-L1	CDR-L2	CDR-L3
17 nM	3/3	EGDSLRYTYAN	GKNNRPC	SSRDSSGFQVF
45 nM	3/3	KGDSLRYYYAN	GKNNRPS	SSRDISGYQVF
48 nM	3/3	EGDSLRYHYAN	GKNNRPS	SSRDSTGRQVF
53 nM	3/3	EGASLRYYYAN	GKNNRPS	SSQDSAGFQVF
62 nM	3/3	EGHSLNYYYAN	GKNNRPS	SSRDSSGFQTF
80 nM	3/3	FGDTLRYYKAN	GKNNRPS	SSRDSSGFQVF
110 nM	3/3	EGDSLQYYYAN	GKNNRPS	SARDSSGFAVF
140 nM	2/3	EGDSLRYYEIN	GKNNRPS	SSRDSSGFQVH
190 nM	3/3	EGDSLRYYSAK	GKNNRPS	MSRDSSGFQVF
200 nM	3/3	EGDSLRKYYAN	GKNDRPS	SSRDSSGFQVR
220 nM	3/3	EGDSLRYYYAN	GKGNRPS	SSRDSAGFQVF
230 nM	3/3	EGDSLRYRYAN	GKKMRPS	SSRDSSGFQVF
270 nM	3/3	EGDSLRYYYAN	GKNNRPS	SSRRQSGFQVF
300 nM	3/3	IGDSLRYYYAN	GKNSRPS	SSRDSSGFQVC
340 nM	2/3	EGDSLRYYYAN	GKNGRPS	SSRESSGFQVF
340 nM	3/3	EGDSLRYCYAN	GKNNRPD	SSRDSSGFKVF
480 nM	3/3	EGDSLRYCYAN	GNNNRPS	SFRDSSGFQVF
560 nM	3/3	ENDSLRYYYMN	GKNNRPS	SSRDSSGFQDF
580 nM	3/3	EPDSLRSNYAN	GKNNRPS	SSRDSSGFQVF
650 nM	3/3	ESDSLRYYYAN	GKNNRPS	SSRTSSGFDVF
680 nM	1/3	EGDSSRYYYAN	GNNNRPS	SSRDSSGFQVG
710 nM	3/3	EGDSQRYYTAN	GKNNRPS	SSRDSSGFQVF
960 nM	3/3	EGDSLRYFYAN	GKNNRPS	SSRDSSGFARF
1.2 µM	1/3	EGDSLRVYIAN	GKNKRPS	SSRDSSGFQVF
1.2 µM	3/3	KGDSLRIYYAN	GKNNRGS	SSRDSSGFQVF
1.2 µM	3/3	LGDSLRYYYAN	GKNSRPS	SSRDSSGFQEF
1.3 µM	3/3	EGDWLNYYYAN	GKNNRPS	SSRDSSGFQVF
1.4 µM	1/3	EGDSNRYMYAN	GKNNRPS	FSRDSSGFQVF
1.4 µM	1/3	SGDSLRYYYAN	AKNCRPS	SSRDSSGFQVF
1.6 µM	1/3	EGDSLGYYYAN	GKNNRPS	SKLDSSGFQVF
1.6 µM	2/3	EGDYLRYYYAN	GKNNRAS	SSRDSSGFDVF
1.6 µM	3/3	EGNSLRYYYAN	GKNNTWS	SSRDSSGFQVF
1.6 µM	3/3	MGDSLRYYYAA	GKNNRPS	SSRDTSGFQVF
1.7 µM	2/3	EGDSLWYVYAN	EKNNRPS	SSRDSSGFQVF
1.8 µM	1/3	EDDSLRYYYAN	GKNNRPS	SSRDSSGFQGD
2.8 µM	1/3	EPDSLRYWFAN	GKNNRPS	SSRDSSGFQVF
2.8 µM	2/3	EGDSLRYEYSN	GKNNRFS	SSRDSSGFQVF
3.2 µM	2/3	EGDSLRYIYAN	GKNNRPE	SSRDSGGFQVF
3.2 µM	2/3	EGDSLRYYYAN	GKNNRPT	SSRQSSVFQVF
3.4 µM	3/3	EGDSLRQYYAN	GKHNRPS	SSRDSSIFQVF
3.4 µM	1/3	EGDLLRYYYAN	GKNNAPS	SSRDSSGFQVN
3.9 µM	3/3	EGDHLRYYYAN	GKANRPS	SSRDFSGFQVF
3.9 µM	2/3	EGDSLRYYYPN	GKNNIPS	SSRDCSGFQVF
4.4 µM	1/3	EGDSLRYYYWN	GKNNRPS	SGRDSSHFQVF
5.4 µM	1/3	EYDRLRYYYAN	GKNNRPS	SSRDSYGFQVF
5.4 µM	3/3	EGDSLRYYYAN	GPNNRTL	SSRDSSGFQVF
5.7 µM	2/3	EGDSLRYYIAW	GKNNRPS	SSRDSSDFQVF
6.7 µM	2/3	EGDSLRYYTAN	GKKNRPS	SSRDSSGFYVF
7.0 µM	2/3	EGDSYDYYYAN	GKNNRPS	SYRDSSGFQVF
9.1 µM	1/3	CGLSLRYYYAN	GKNNMPS	SSRDSSGFQVF
12 µM	1/3	EGDSLRNYYAN	CKNNRPS	SSRDSSGFQVQ
14 µM	1/3	ESDSLRYYYAN	GKNNRPS	SSRDVSLFQVF
18 µM	3/3	EGTSLRYYYAT	FKNNRPS	SSRDSSGFQVF
19 µM	1/3	EGDSLRYYYAP	GKNNRPS	SRRDSTGFQVF
20 µM	1/3	EADSKRYYYAN	GKANRPS	SSRDSSGFQVF
20 µM	1/3	EGDSLRYYYAN	GKNNRPS	WSRDSSTFKVF
23 µM	1/3	EGDSLRYYIAN	GKCNRPS	SSRDSSGFQVF
24 µM	1/3	EGDSLRYDYYV	GKNNRPS	SSRDSSGFQVF
26 µM	1/3	EMDSLRYYYAN	GKYNRPS	SSRDSSGFQVQ
28 µM	1/3	EGDSLRYYRAN	GKNNRYS	SSRDSSGGQVF
30 µM	2/3	EGDKLRVYYAN	GKANRPS	SSRDSSGFQVF
33 µM	1/3	GRDSLRYYYAN	GKNNRPS	SSRPSSGFQVF
35 µM	1/3	EVDSLRYYYAN	GKNNRPS	YSQDSSGFQVF
36 µM	1/3	ETDSLRYYYAN	GKNNRNS	SSRDSYGFQVF
47 µM	3/3	EGDSLKYYYAN	GKNCRPS	SSRKSSGFQVF
81 µM	1/3	EGDSLRYYYKN	GKNNRPS	SRRDSSGFQVV
no signal	0/3	QGDSLRYYYAN	GKNNRPC	SSYDSSGFQVF
no signal	0/3	ERDSLRYYYAN	GKNNRPS	SSRDSSGFQCH
no signal	0/3	EDDSLRYYYAN	GKNNRPS	SQRDSSGFQVF

The closing 8 entries, repeated:

CDR-L1	CDR-L2	CDR-L3	Kd	detected
GRDSLRYYYAN	GKNNRPS	SSRPSSGFQVF	33 µM	1/3
EVDSLRYYYAN	GKNNRPS	YSQDSSGFQVF	35 µM	1/3
ETDSLRYYYAN	GKNNRNS	SSRDSYGFQVF	36 µM	1/3
EGDSLKYYYAN	GKNCRPS	SSRKSSGFQVF	47 µM	3/3
EGDSLRYYYKN	GKNNRPS	SRRDSSGFQVV	81 µM	1/3
QGDSLRYYYAN	GKNNRPC	SSYDSSGFQVF	no signal	0/3
ERDSLRYYYAN	GKNNRPS	SSRDSSGFQCH	no signal	0/3
EDDSLRYYYAN	GKNNRPS	SQRDSSGFQVF	no signal	0/3

Empty control strains, which show no peptide, gave a signal in 28% of pairings with library AAYL52; the median was 8.2 µM and 95% of these signals were weaker than 800 nM. No background was subtracted.
For reference, the parent read 200 nM as the reference entry and 180 nM as a member of this library.